One compound from US20090143761A1, “AGENT DELIVERY SYSTEM AND USES OF SAME” (T[…] COMPANY, LLC, priority 2005, published 2009) can be followed below.

This series can be described thus: Saliva and interstitial fluid melatonin after melatonin ingestion, melatonin EIA, clinical trial samples. Format: in vivo, human. As to conditions: four out of the five volunteers. On the procedure: Melatonin EIA: Fluid samples were assayed using a commercially available direct saliva melatonin EIA (American Laboratory Products, Cat. No. 001-EK-DSM). This is a competitive binding assay. The samples, controls, and standards are incubated with melatonin biotin conjugate for three hours and a binding competition for a melatonin antibody, which is bound to the microtiter plate, occurs between the melatonin conjugate and the melatonin in the samples. The more melatonin that is present in the sample, the less biotin conjugate is bound. After three hours the plate was washed and enzyme label was added for one hour during which time binding between the conjugate and enzyme occurs. After one hour, the plate was washed and TMB substrate was added. […] Stop solution is added after a thirty minute incubation, and the plate was read using a BioTek EL800 microplate reader.
RESULTS: The concentrations of melatonin in the samples and controls were computed using the 4-parameter logistic model available in the BioTek KC Junior software. […] This gave melatonin values that were due solely to melatonin ingestion and removed any background readings due to cross reactivity to other interstitial fluid or saliva components as well as any background measurements due to the matrix of the iontophoresis electrode buffer itself.

Consider `COc1ccc2[nH]cc(CCNC(C)=O)c2c1`, for which the “increase in interstitial fluid melatonin after ingestion, mean” value was 9.0 ± 6.2 pg/mL.
